Where two headings read alike, the source gives them in different places.
Target: Grb2 SH2 domain (recombinant Grb2 SH2-GST fusion protein; SHC-derived phosphopeptide) (Homo sapiens, UniProt P62993)

Chains of the proteins cited; added tags and fusions are not shown. Residues count along the entry.
UniProt P62993, 60-152 limits assumed: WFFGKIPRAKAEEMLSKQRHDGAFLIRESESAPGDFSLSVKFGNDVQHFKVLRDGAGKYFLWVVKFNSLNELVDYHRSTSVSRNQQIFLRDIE

Compound	IC50 (read-out: IC50, extracellular ELISA GrB2 SH2 domain binding assay (FIG. 24), FIG. 24, no unit printed in legend) [nM]	IC50 (read-out: IC50, extracellular ELISA assay of Grb2 SH2 domain binding inhibitors (FIG. 17), FIG. 17) [nM]	IC50 (read-out: IC50, Grb2 SH2 domain protein, ELISA (FIG. 11), FIG. 11, n=3) [nM]
NC(=O)C[C@H](NC(=O)C1(NC(=O)[C@H](Cc2ccc(CP(=O)(O)O)cc2)NC(=O)C(=O)O)CCCCC1)C(=O)NCCCc1cccc2ccccc12	3	10	
NC(=O)C[C@H](NC(=O)C1(NC(=O)CCc2ccc(CP(=O)(O)O)cc2)CCCCC1)C(=O)NCCCc1cccc2ccccc12			2000

— US7425537B2, “SH2 domain binding inhibitors” (The United States of America as represented by the …, priority 2000, dated 2008)
